The target in experiment [1] is T1, human complement component C3a (human, UniProt P01024 672-748).
T1 construct: also called Human C3a; complement-derived peptide C3a
As to the kind of experiment: SPR (BIACORE 2000), biotinylated peptide on streptavidin chip, C3a as analyte; Kd = koff/kon from kobs plots; first extracellular loop of the rat protein. For orientation: Surface plasmon resonance follows binding to a sensor surface in real time, without labels.

Experiment [2] addresses T1, human complement component C3a. As to the kind of experiment: SPR (BIACORE 2000): biotinylated 1st extracellular loop peptide of the rat FcεRI β chain on a streptavidin chip, C3a injected as analyte at 5 concentrations.
Experiment [3] has as its target T2, C5a (UniProt P01031 678-751).
T2 construct: domain: C5a; Control analyte in SPR
T2 sequence (looked up): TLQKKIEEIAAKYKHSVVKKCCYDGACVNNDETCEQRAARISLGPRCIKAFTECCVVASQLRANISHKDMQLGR
As to the kind of experiment: SPR (BIACORE 2000), peptide on streptavidin chip, C5a as analyte.

The target of experiment [4] is T1, human complement component C3a. As to the kind of experiment: SPR (BIACORE 2000), peptide on streptavidin chip, C3a as analyte.

Ends that are not written are not given here. * marks the point of attachment. Biotin = O=C1N[C@H]2[C@H](CS[C@H]2CCCCC(=O)*)N1

The term Kd denotes the equilibrium constant for the complex coming apart. The low end stands for higher affinity, the high end for lower affinity.

B1: biotinylated peptide of the 1st extracellular loop of the rat FcεRI β chain (peptide)
peptide: Biotin-STLQTSDFDDEVLLLYRAGYPF
notes: also called first extracellular loop of rat FcεRI β-chain
For B1, the results for the dissociation constant (Kd) in experiment [1] and in experiment [2] were 520 nM and 250 nM, respectively. In experiment [3], the binding result is “no binding”.

B2: biotinylated peptide of the 2nd extracellular loop of the rat FcεRI β chain (peptide)
peptide: Biotin-NNSAYMNYCKDITEDDGCFVTS
modifications: cysteine pairing not given here
notes: also called second extracellular loop of rat FcεRI β-chain
As to B2, the binding result in experiment [4] and in experiment [3] was “no binding” each time.

The record behind these values is US20090075898A1 (YEDA RESEARCH AND DEVELOPMENT CO LTD AT THE WEIZMANN …, published 2009).
